Data as given in patent US20240132513A1, “BENZAZEPINE DERIVATIVES, COMPOSITIONS, AND METHODS FOR TREATING COGNITIVE IMPAIRMENT” (AGENEBIO, INC., priority 2022, published 2024).

Sequences of proteins named here, by UniProt entry; tags and fusion partners are left off. Residues count along the entry.
UniProt P18507, 40-475: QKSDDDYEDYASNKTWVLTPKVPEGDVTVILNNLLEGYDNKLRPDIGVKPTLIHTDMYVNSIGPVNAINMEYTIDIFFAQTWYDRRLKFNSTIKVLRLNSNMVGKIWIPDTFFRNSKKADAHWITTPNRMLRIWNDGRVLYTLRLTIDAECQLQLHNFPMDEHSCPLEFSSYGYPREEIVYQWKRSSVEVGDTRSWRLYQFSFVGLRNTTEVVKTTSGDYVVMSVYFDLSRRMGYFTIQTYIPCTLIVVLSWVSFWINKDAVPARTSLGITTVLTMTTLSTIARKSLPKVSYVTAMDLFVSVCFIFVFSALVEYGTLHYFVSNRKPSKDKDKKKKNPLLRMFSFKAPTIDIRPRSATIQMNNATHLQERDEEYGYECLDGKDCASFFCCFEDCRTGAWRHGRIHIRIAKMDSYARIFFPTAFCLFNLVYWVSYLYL
UniProt P31644, 32-462: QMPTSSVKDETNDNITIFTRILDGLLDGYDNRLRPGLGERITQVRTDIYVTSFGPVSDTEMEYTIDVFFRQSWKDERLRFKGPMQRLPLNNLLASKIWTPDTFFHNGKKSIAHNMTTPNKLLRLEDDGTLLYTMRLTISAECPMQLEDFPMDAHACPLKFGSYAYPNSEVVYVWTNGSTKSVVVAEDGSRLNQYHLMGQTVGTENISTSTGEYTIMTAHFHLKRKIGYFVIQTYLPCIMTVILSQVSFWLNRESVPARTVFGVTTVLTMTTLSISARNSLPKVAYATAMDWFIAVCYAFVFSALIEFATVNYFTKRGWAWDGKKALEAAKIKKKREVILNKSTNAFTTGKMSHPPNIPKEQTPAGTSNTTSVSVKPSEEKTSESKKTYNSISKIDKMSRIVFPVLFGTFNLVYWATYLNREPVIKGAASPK

Target: T1, GABAA R (α5β2γ2) (Homo sapiens, UniProt P18507+P31644)
T1 construct: expressed in transfected cells
Assay: Positive allosteric modulator activity: potentiation of EC20 GABA current in oocytes
Format: cell-based
Details: read-out: GABA α5 Functional Data: potentiation
Description: On day 1, 1 ng/32 nL of GABAA α5β2γ2 cDNA was injected into one oocyte. Test starts on day 2. The cDNA injected to the oocytes was a mix of alpha, beta and gamma, their ratio is 1:1:10 (by weight) and the total weight of the mixed 3 subunits to be injected in one oocyte was 1 ng in 32 nl volume. The injected oocytes can also be tested on day 3. In such case, the cDNA amount injected to the oocytes should be reduced by 20%.
Compounds of the present disclosure were tested using the following procedures.
8 oocytes were placed in 8 chambers of OpusXpress and superfused with Modified Barth's Saline (MBS) at 3 mL/min. Glass electrodes back-filled with 3M KCl (0.5-3 megaohms) were used. Membrane potential of oocytes was voltage-clamped at −60 mV. • 2).
Control Test (Diazepam or Methyl 3,5-Diphenylpyridazine-4-Carboxylate) • 1). New oocytes was used to run new test. • 2). […] Oocytes were washed with MBS for 5-10 min. • 4). […] Itest was divided by IGABA to obtain potentiation (%).
Test Compounds at Multiple Doses • 1). Repeat the above steps 1), 2) and 3) in the control test. • 2). […] Divide Itest by IGABA to obtain potentiation (%). • 3). Discard all tested oocytes, new oocytes were used and the above steps 1) and 2) were repeated to test second concentration of the same compound. Each oocyte was used for only one concentration test for a single test compound. […]

Q: How did the activation at 0.1 µM turn out when `COc1ccc2c(c1)-c1[nH]ncc1Cc1c(-c3noc(C(C)C)n3)ncn1-2` [Compound 54] was run?
A: > 50%
